PubChem BioAssay AID652104 (National Center for Advancing Translational Sciences (NCATS), 2013)
The entries are a selection whose mix differs from that of the whole data set. Inconclusive results are not listed. Activity calls are given as the source filed them. The call rests on the fitted dose curve; in most records, active means well fitted activation curve with a large enough effect; inconclusive means small, poorly fitted or top-dose-only effect, or another doubt; inactive means no such curve, though single readings can be large or run the other way.

experiment: qHTS of TDP-43 Inhibitors; conditions: TDP-43 expressing yeast growth rescue, BacTiter-Glo, 24 h; at 46.1 µM (top of the series); further: % of control where 0% means no effect; nearly all actives have a fitted effect of over 50% in size

Compound	growth rescue (activation)
CCC(=O)N(c1ccccc1)C1(COC)CCN(CCc2cccs2)CC1	inactive: 20.6%
CCC(=O)N(c1ccccc1)C1(COC)CCN(CCn2nnn(CC)c2=O)CC1	inactive: 18.8%
